Biological target: Recombinant human calpain I (Homo sapiens, UniProt P07384)
Experiment: Inhibition of cysteine protease activity: calpain I, Succ-Leu-Tyr-MNA substrate hydrolysis
Details: read-out: Calpain IC50 nM; Table 2, linear α-ketoamides

Protein sequences, listed by entry. Tags and fused reporters are not part of them.
UniProt P07384, whole entry: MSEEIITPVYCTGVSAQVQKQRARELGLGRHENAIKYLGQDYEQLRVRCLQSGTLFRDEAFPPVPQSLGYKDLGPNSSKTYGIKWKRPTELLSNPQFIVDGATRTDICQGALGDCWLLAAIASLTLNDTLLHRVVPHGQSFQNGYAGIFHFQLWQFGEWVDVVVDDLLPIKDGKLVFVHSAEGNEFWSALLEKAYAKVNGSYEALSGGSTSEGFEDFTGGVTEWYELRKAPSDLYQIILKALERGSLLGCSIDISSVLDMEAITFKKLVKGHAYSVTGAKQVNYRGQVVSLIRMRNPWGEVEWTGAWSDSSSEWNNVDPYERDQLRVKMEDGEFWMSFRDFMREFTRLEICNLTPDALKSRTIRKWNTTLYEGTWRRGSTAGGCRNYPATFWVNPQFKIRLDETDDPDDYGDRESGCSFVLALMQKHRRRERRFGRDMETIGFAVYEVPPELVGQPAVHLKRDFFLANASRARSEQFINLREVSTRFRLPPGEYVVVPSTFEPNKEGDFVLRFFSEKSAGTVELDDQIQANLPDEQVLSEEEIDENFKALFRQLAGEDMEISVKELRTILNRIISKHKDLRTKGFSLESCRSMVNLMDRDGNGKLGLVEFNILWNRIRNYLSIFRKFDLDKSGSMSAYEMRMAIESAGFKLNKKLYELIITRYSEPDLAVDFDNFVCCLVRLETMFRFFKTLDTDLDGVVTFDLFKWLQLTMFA
UniProt P04632, whole entry partner: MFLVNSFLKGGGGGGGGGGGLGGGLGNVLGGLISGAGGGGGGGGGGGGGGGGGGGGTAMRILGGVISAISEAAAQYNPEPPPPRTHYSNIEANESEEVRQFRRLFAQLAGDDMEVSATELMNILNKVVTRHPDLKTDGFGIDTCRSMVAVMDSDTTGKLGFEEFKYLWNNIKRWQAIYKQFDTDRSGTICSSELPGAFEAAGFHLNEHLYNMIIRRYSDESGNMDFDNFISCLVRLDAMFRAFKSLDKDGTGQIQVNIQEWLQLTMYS

For `COCC(NC(=O)[C@@H](COCc1ccccc1)NS(C)(=O)=O)C(=O)C(=O)NCCNS(=O)(=O)c1ccc(-c2ccccn2)s1` (stereo partly shown), the IC50 was 14 nM.

Same assay, conditions: read-out: Calpain IC50 nM; Table 4, α-ketoamides

`CS(=O)(=O)N[C@H](COCc1ccccc1)C(=O)NC(Cc1ccccc1)C(=O)C(=O)NCCNS(=O)(=O)c1ccc(CN2CCN(c3ccccn3)CC2)cc1` (stereo partly shown) and `CS(=O)(=O)N[C@H](COCc1ccccc1)C(=O)N[C@@H](Cc1ccccc1)C(=O)C(=O)NCCNS(=O)(=O)c1ccc(CN2CCN(c3ncccn3)CC2)cc1` are within 1.5-fold of each other in IC50: 21 nM for the first, 24 nM for the second.

First: CS(=O)(=O)N[C@H](COCc1ccccc1)C(=O)N[C@@H](Cc1ccccc1)C(=O)C(=O)NC1CCN(S(=O)(=O)c2ccccc2)CC1
Second: CS(=O)(=O)N[C@H](COCc1ccccc1)C(=O)N[C@@H](Cc1ccccc1)C(=O)C(=O)NCCN1C(=O)c2ccccc2S1(=O)=O
The IC50 of the first is 1.5-fold lower: 32 nM for the first, 48 nM for the second. The first is the more potent here.

First: CC(=O)Nc1ccc(OCc2ccc(S(=O)(=O)NCCNC(=O)C(=O)[C@H](Cc3ccccc3)NC(=O)[C@@H](COCc3ccccc3)NS(C)(=O)=O)cc2)cc1
Second: CON(C)Cc1ccc(S(=O)(=O)NCCNC(=O)C(=O)C(Cc2ccccc2)NC(=O)[C@@H](COCc2ccccc2)NS(C)(=O)=O)cc1 (stereo partly shown)
The IC50 of the first is 1.5-fold lower: 14 nM for the first, 21 nM for the second.

First: CS(=O)(=O)N[C@H](COCc1ccccc1)C(=O)N[C@@H](Cc1ccccc1)C(=O)C(=O)NCCNS(=O)(=O)c1ccc(CN2CCN(S(C)(=O)=O)CC2)cc1
Second: CC(=O)N1CCN(Cc2ccc(S(=O)(=O)NCCNC(=O)C(=O)[C@H](Cc3ccccc3)NC(=O)[C@@H](COCc3ccccc3)NS(C)(=O)=O)cc2)CC1
The IC50 of the first is 2.6-fold higher: 37 nM for the first, 14 nM for the second.

Compared with `CN(CCNC(=O)C(=O)[C@H](Cc1ccccc1)NC(=O)[C@@H](COCc1ccccc1)NS(C)(=O)=O)S(=O)(=O)c1ccc(-c2ccon2)s1`, `CS(=O)(=O)N[C@H](COCc1ccccc1)C(=O)NC(Cc1ccccc1)C(=O)C(=O)NCCNS(=O)(=O)c1ccc(-c2cccc(CO)c2)s1` (stereo partly shown) is 1.7-fold higher in IC50: 21 nM for the first, 35 nM for the second. The first is the more potent here.

Compared with `CC(=O)c1ccc(N2CCN(Cc3ccc(S(=O)(=O)NCCNC(=O)C(=O)C(Cc4ccccc4)NC(=O)[C@@H](COCc4ccccc4)NS(C)(=O)=O)cc3)CC2)cc1` (stereo partly shown), `CS(=O)(=O)N[C@H](COCc1ccccc1)C(=O)N[C@@H](Cc1ccccc1)C(=O)C(=O)NCCNS(=O)(=O)c1ccc(CN2CCN(Cc3ccccc3)CC2)cc1` is 2.1-fold higher in IC50: 11 nM for the first, 23 nM for the second. The first is the more potent here.

Going from `CONS(=O)(=O)CCCNC(=O)C(=O)[C@H](Cc1ccccc1)NC(=O)[C@@H](COCc1ccccc1)NS(C)(=O)=O` to `C[C@H](OCc1ccccc1)[C@@H](NS(C)(=O)=O)C(=O)NC(Cc1ccccc1)C(=O)C(=O)NCCNS(=O)(=O)c1ccc(-c2cccc(CN3CCOCC3)c2)s1` (stereo partly shown), the IC50 falls from 87 nM to 23 nM (3.8-fold).

Same assay, conditions: read-out: Calpain IC50 nM; Table 5, achiral P2 mimetic α-ketoamides

`O=C(NCCNS(=O)(=O)c1ccc(-c2ccccn2)s1)C(=O)[C@H](Cc1ccccc1)NC(=O)c1cc(Cl)ccc1Cl` and `O=C(NCCNS(=O)(=O)c1ccc(-c2ccccn2)s1)C(=O)[C@H](Cc1ccccc1)NC(=O)c1ccc(Cl)nc1Cl` are within 1.5-fold of each other in IC50: 68 nM for the first, 80 nM for the second.

Going from `O=C(NCCNS(=O)(=O)c1ccc(CN2CCN(c3ccccn3)CC2)cc1)C(=O)[C@H](Cc1ccccc1)NC(=O)c1c(Cl)cccc1Cl` to `O=Cc1cccc(-c2ccc(S(=O)(=O)NCCNC(=O)C(=O)[C@H](Cc3ccccc3)NC(=O)c3c(Cl)cccc3Cl)s2)c1`, the IC50 falls from 83 nM to 21 nM (4-fold). The second is the more potent here.
